Measured affinities in a library of Ab-91 heavy chain variants

From the AlphaSeq antibody data of Engelhart et al. 2022 (doi:10.1038/s41597-022-01779-4), copy in the FLAb collection.

Binding partner: SARS-CoV-2 spike HR2 peptide, sequence PDVDLGDISGINAS.

Parent: Ab-91, a human scFv built as VL, a 15-residue (Gly4Ser)3 linker, VH. Only the CDRs of the heavy chain vary.
VL: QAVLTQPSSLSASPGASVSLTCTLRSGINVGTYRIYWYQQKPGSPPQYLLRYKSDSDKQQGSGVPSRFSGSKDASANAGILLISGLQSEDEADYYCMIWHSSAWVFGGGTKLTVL
VH: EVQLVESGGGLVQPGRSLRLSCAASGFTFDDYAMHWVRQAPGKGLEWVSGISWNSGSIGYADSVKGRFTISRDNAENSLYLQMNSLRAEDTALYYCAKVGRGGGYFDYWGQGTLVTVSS

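The library (AAYL51) carries one to three amino acid substitutions per variant, with no insertions or deletions. In AlphaSeq, yeast of one mating type display the scFv and yeast of the other type display the target. Binding brings cells together so that they mate, and sequencing counts the barcode pairs among the diploids. Read counts were normalised to the haploid input and turned into Kd by a linear fit to BCL2-family pairs of known affinity, for each replicate. Each pool was mated in three replicate cultures.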

The parent's heavy chain CDRs are GFTFDDYAMH, GISWNSGSIGYADSVK, VGRGGGYFDY; each variant's own CDRs replace them letter for letter. Values are log10 of the apparent Kd in nM; lower means stronger binding. Averages over replicates are reported, and they cover detected replicates only. Where no diploid with the target was found in that replicate, the entry reads "n.d.": below detection, most likely a poor binder, though not proof of it. In this assay the parent's reference entry averaged 1.86; its copy inside this library read 0.88.

CDR-H1,CDR-H2,CDR-H3,log10 Kd (nM) by replicate,"mean, log10 nM",empty controls
GFTFDDYAMH,GIGWNKGSIGYADSVK,VGRGGGYFDY,2.16 1.89 2.23,2.10,0 of 9
GFTFDDYAMH,GISWNSISIGYADSVK,VGRGRGYFDY,5.61 5.26 5.07,5.31,3 of 9 (4.29)
GFTFDDYAMH,GISWNSGSIYYADSVK,VGRGGGPFDQ,4.44 5.63 n.d.,5.03,6 of 9 (5.14)
GFTFDDQAEH,GIHWNSGSIGYADSVK,VGRGGGYFDY,n.d. n.d. n.d.,n.d.,1 of 9 (3.74)
GFTFDDYTMH,GIVWNPGSIGYADSVK,VGRGGGYFDY,4.93 n.d. n.d.,4.93,1 of 9 (3.70)
GFTFDDYAMH,GISCNSGRIGSADSVK,VGRGGGYFDY,n.d. n.d. n.d.,n.d.,0 of 9
GFSFDDYAMH,GISWNVGSIGYADSVK,VGRGGKYFDY,3.66 4.31 3.95,3.97,3 of 9 (4.81)
GFTFDDYAMH,GISWNIDSIGYAYSVK,VGRGGGYFDY,n.d. n.d. n.d.,n.d.,0 of 9
GFTTDDYAMH,GISWNSGSIGYADSVK,VSRGGGYFDY,n.d. n.d. n.d.,n.d.,0 of 9
PFTFDDRAMH,GISWNSGSIGYADSVK,VGRGGGYFDV,3.20 3.53 n.d.,3.36,2 of 9 (3.95)
GFTFDDYAMH,GISWNSHSIGYADSIK,VGHGGGYFDY,1.53 1.57 1.42,1.51,4 of 9 (4.88)
GFTFVDYAMH,GILWNSGSIGYADSVK,VKRGGGYFDY,4.84 n.d. n.d.,4.84,1 of 9 (4.04)
VFTFDDYAMH,GISWNSGSIGYADSVK,VGRGGGYIDY,n.d. 4.05 n.d.,4.05,1 of 9 (4.45)
GFTFDDNFMH,GISVNSGSIGYADSVK,VGRGGGYFDY,n.d. n.d. n.d.,n.d.,1 of 9 (4.05)
GFTFDDYAMH,GISCNSRSIGYADSVM,VGRGGGYFDY,n.d. 4.14 n.d.,4.14,2 of 9 (4.14)
GETFDDYAVH,GISWNSGSIGYADPVK,VGRGGGYFDY,5.63 n.d. n.d.,5.63,2 of 9 (3.82)
GFTFDDYAMH,GISWNSGSIGYADSVK,WQRGGGYFDY,4.63 n.d. n.d.,4.63,3 of 9 (4.08)
GFTFDDYAMH,GISWQSGSIGYADSVY,VGRGGGYFDG,3.65 5.15 3.22,4.00,0 of 9
GFTFDDYAMH,GISWPSGSHGYADNVK,VGRGGGYFDY,4.92 n.d. n.d.,4.92,3 of 9 (5.02)
GFTFDVYAMH,GISWRSGSIGYNDSVK,VGRGGGYFDY,n.d. n.d. n.d.,n.d.,0 of 9
GFTFDDYAMH,GINWNSGSIGYADMVK,GGRGGGYFDY,n.d. n.d. n.d.,n.d.,0 of 9
GFTFDDYAMH,GPSWNSGSIDVADSVK,VGRGGGYFDY,n.d. n.d. n.d.,n.d.,0 of 9
GFTFDDYAMH,DISWRSGSIGYADSVK,VGRYGGYFDY,n.d. n.d. n.d.,n.d.,2 of 9 (4.14)
GFTFDDYAGH,GISWNSGSGGYADSVT,VGRGGGYFDY,n.d. n.d. n.d.,n.d.,0 of 9
GFTFDDYDMH,GISWNSGSIGYADSVK,VGRGGGYFDY,n.d. 4.32 5.27,4.79,5 of 9 (4.80)
GITFDDYANH,GISWNSGSIGYADSVK,VGRGGGYFDY,5.64 6.28 n.d.,5.96,5 of 9 (4.80)
GFTFDDYAMH,GISWNSGSIYYAHSIK,VGRGGGYFDY,n.d. 5.92 n.d.,5.92,2 of 9 (3.84)
GFGFDDYAMH,GTSWNSGSIGYADGVK,VGRGGGYFDY,n.d. n.d. n.d.,n.d.,0 of 9
GFTFDDYAMH,GISWNSGSIGYSDSVK,VVRGGGYFDW,1.33 1.32 0.80,1.15,2 of 9 (4.73)
GFTFDDYAMH,GISWNSGSIGYADSYK,DGRGGGKFDY,2.10 2.92 1.81,2.28,0 of 9
GFTFDDYAMH,GISWNSGSIPYADSVK,VGRGGGYFDY,n.d. n.d. n.d.,n.d.,2 of 9 (3.93)
GFTFDDTAMH,GISWQSGSIGYADSVK,VGGGGGYFDY,n.d. 5.15 4.85,5.00,2 of 9 (4.47)
GFTFDDYAMH,GISWNSGSIGYADSVK,VGRGGFYFVY,4.90 n.d. n.d.,4.90,4 of 9 (4.86)
GFTRDDYAMH,GISWNSGSIGDADSVK,VGRGGGYDDY,4.92 6.51 n.d.,5.71,4 of 9 (4.97)
GQTFDDFAMH,GISWNSGSIGYADSVK,VGRGGGYHDY,n.d. n.d. n.d.,n.d.,1 of 9 (4.05)
GFTFDDYAMH,GISWNSGSIGYADPVK,VGRGGGYFDY,1.65 1.73 0.83,1.40,0 of 9
GFTFDDYAMH,GISWNSGSIGYAISVK,VGRGGSYFDE,5.10 5.94 4.34,5.13,3 of 9 (5.81)
GFTFQDYAMH,GITWNSGSIGYADSVK,VGRGGGYFWY,3.51 3.28 3.78,3.52,0 of 9
GFTFDDYAMH,GISENSGSDGYADSVP,VGRGGGYFDY,n.d. n.d. n.d.,n.d.,0 of 9
EFYFDDYAMH,GESWNSGSIGYADSVK,VGRGGGYFDY,n.d. 5.39 n.d.,5.39,1 of 9 (4.55)
GFTFDDYEMH,GISINSGSIGYADSVK,VGRGYGYFDY,n.d. n.d. n.d.,n.d.,1 of 9 (3.63)
GFTFDDYAMH,GISWNSGSIGYTDSVR,VGRGGGYFDY,2.71 2.85 2.92,2.83,0 of 9
GFTPDDVAMH,GISWNSGSIGYADSVK,VGRVGGYFDY,n.d. 5.32 4.76,5.04,1 of 9 (4.58)
GFTFDDVAMH,GESWNSGFIGYADSVK,VGRGGGYFDY,n.d. n.d. n.d.,n.d.,4 of 9 (4.14)
GFVFDDYAMH,IIGWNSGSIGYADSVK,VGRGGGYFDY,n.d. n.d. n.d.,n.d.,3 of 9 (4.46)
GFCFDDYAMH,SISWNSGSIYYADSVK,VGRGGGYFDY,4.59 5.00 4.44,4.68,4 of 9 (4.30)
GFTFEDHAMH,GISWNSGSIGYADAVK,VGRGGGYFDY,n.d. n.d. n.d.,n.d.,0 of 9

For reference, 7 entries of the list once more:

CDR-H1,CDR-H2,CDR-H3,log10 Kd (nM) by replicate,"mean, log10 nM",empty controls
GFTFDDYTMH,GIVWNPGSIGYADSVK,VGRGGGYFDY,4.93 n.d. n.d.,4.93,1 of 9 (3.70)
GQTFDDFAMH,GISWNSGSIGYADSVK,VGRGGGYHDY,n.d. n.d. n.d.,n.d.,1 of 9 (4.05)
GFTFDDYAMH,GISWNSGSIGYSDSVK,VVRGGGYFDW,1.33 1.32 0.80,1.15,2 of 9 (4.73)
GFTFEDHAMH,GISWNSGSIGYADAVK,VGRGGGYFDY,n.d. n.d. n.d.,n.d.,0 of 9
PFTFDDRAMH,GISWNSGSIGYADSVK,VGRGGGYFDV,3.20 3.53 n.d.,3.36,2 of 9 (3.95)
VFTFDDYAMH,GISWNSGSIGYADSVK,VGRGGGYIDY,n.d. 4.05 n.d.,4.05,1 of 9 (4.45)
GFTFDDYAMH,GISENSGSDGYADSVP,VGRGGGYFDY,n.d. n.d. n.d.,n.d.,0 of 9

Background: pairings of library AAYL51 with three empty control strains gave a value in 21% of cases (median 4.54, 5th percentile 3.26). Values in that range, when seen in few replicates, are hard to tell from nonspecific mating. The control count says in how many pairings with the empty strains this scFv gave a signal, with their mean in brackets.